# Measured boiling point values of organic chemicals

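These are experimental values that the OPERA curators gathered from public databases to train and test their QSAR models. The files give a single number for a compound and property, which may rest on several reports. How each value was measured is not recorded, so precision varies. Where a salt, mixture or single isomer is drawn, the source does not say that exactly this form was tested. Some upstream entries may be estimates or bounds without being marked so.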

The boiling point refers to atmospheric pressure (760 mmHg), by the definition of the set. The databases behind each value are named after "via".

O=[N+]([O-])c1ccc(Nc2ccccc2)cc1 [4-Nitro-N-phenylaniline] has boiling point 343 °C (via PubChem).
CN1CC[C@]23c4c5ccc(O)c4O[C@H]2C(=O)CC[C@H]3[C@H]1C5 [Hydromorphone] has boiling point 305 °C (via PubChem).
O=C(O)C(Br)Br [Dibromoacetic acid] has boiling point 233 °C (via PubChem).
O=C(F)C1(F)OC1(F)F (stereo not given) [2,3,3-Trifluoro-2-oxiranecarbonyl fluoride] has boiling point 16 °C (via OCHEM).
CCNP(=S)(OC)O/C(C)=C/C(=O)OC(C)C (stereo partly drawn) [Propetamphos] has boiling point 87 °C (via OCHEM).
CCOc1cc(Cl)c(CS(=O)(=O)C2=NOC(C)(C)C2)cc1Cl [Fenoxasulfone] has boiling point 468 °C (via OCHEM).
C#CCC1=C(C)C(OC(=O)C2C(C=C(C)C)C2(C)C)CC1=O (stereo not given) [Prallethrin] has boiling point 313.8 °C (via OCHEM, PubChem).
CN(C)c1ccc(C(=O)c2ccc(N(C)C)cc2)cc1 [Bis(4-(dimethylamino)phenyl)methanone] has boiling point 360 °C (via PubChem).
CC(CC#N)N1CC1 (stereo not given) [1-Aziridinepropanenitrile, .beta.-methyl-] has boiling point 195.8 °C (via eChemPortal).
O=C(OOC(=O)C(F)(F)C(F)(F)C(F)F)C(F)(F)C(F)(F)C(F)F [Bis(2,2,3,3,4,4-hexafluoro-1-oxobutyl)peroxide] has boiling point 40 °C (via ChemicalBook).
CCCCOC(=O)COC(=O)c1ccccc1C(=O)OCCCC has boiling point 345 °C (via PubChem).
CC(Cl)C#N (racemic) has boiling point 121 °C (via OCHEM).
CC(Cl)OC(C)Cl (stereo not given) [Bis(alpha-chloroethyl) ether] has boiling point 116 °C (via OCHEM).
CCOC(F)(F)C(F)C(F)(F)F (stereo not given) [Ethyl 2H-perfluoropropyl ether] has boiling point 71 °C (via ChemicalBook).
COC[C@H](C)N(C(=O)CCl)c1c(C)csc1C [Dimethenamid-P] has boiling point 280 °C (via OCHEM, PubChem).
CN(N=O)c1ccccc1 [N-Methyl-N-nitrosoaniline] has boiling point 225 °C (via PubChem).
O=C(C(F)(F)F)C(F)(C(F)(F)F)C(F)(F)F [1,1,1,3,4,4,4-Heptafluoro-3-(trifluoromethyl)butan-2-one] has boiling point 26.5 °C (via eChemPortal).
COC(F)(F)C(F)(F)F [Pentafluoromethoxyethane] has boiling point 5.6 °C (via ChemicalBook).
COP(=O)(OC)OC(Br)C(Cl)(Cl)Br (stereo not given) [Naled] has boiling point 200 °C (via PubChem).
CNC(=O)/C=C(\C)OP(=O)(OC)OC [Monocrotophos] has boiling point 125 °C (via PubChem).
CCOP(=S)(OCC)Oc1cnccn1 [Thionazin] has boiling point 80 °C (via OCHEM, PubChem).

Excerpt, the opening 2 entries:

SMILES	name	boiling point (°C)	via
O=[N+]([O-])c1ccc(Nc2ccccc2)cc1	4-Nitro-N-phenylaniline	343	PubChem
CN1CC[C@]23c4c5ccc(O)c4O[C@H]2C(=O)CC[C@H]3[C@H]1C5	Hydromorphone	305	PubChem

Values as listed in the OPERA 2.9 repository of K. Mansouri.